Values joined by “and” are separate entries in the source; they are usually repeats but may differ in a detail not shown here. Equal entries are not always repeated. Only a part is listed here, and it is no random draw. Records with an inconclusive call do not appear. Active and inactive are the calls of the source. Unless noted, calls follow the shape of the dose curve; as a rule, active = well fitted curve in the direction sought with a large enough effect in the repeat runs; inconclusive = weak or mixed curves; inactive = no such curve, though single readings can be large; an effect the other way counts as inactive or inconclusive.
Key:
[1] = qHTS assay for small molecules that induce genotoxicity in human embryonic kidney cells expressing luciferase-tagged ATAD5 - cell viability (AID 651634; calls by dose curve; also: nearly all actives have a fitted effect of over 25% in size); settings: HEK293T ATAD5-luc cells viability, CellTiter-Fluor, 15.5 h
Procedure, shortened: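 HEK293T cells carrying luciferase-tagged ATAD5, 2,000 cells/well, exposed to compound for 15.5 hr at 37C. Viability read as live-cell protease activity by CellTiter-Fluor fluorescence after 30 min at 37C.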

Amino acid sequences for entries named in this document (tags omitted).
UniProt P10275, whole entry: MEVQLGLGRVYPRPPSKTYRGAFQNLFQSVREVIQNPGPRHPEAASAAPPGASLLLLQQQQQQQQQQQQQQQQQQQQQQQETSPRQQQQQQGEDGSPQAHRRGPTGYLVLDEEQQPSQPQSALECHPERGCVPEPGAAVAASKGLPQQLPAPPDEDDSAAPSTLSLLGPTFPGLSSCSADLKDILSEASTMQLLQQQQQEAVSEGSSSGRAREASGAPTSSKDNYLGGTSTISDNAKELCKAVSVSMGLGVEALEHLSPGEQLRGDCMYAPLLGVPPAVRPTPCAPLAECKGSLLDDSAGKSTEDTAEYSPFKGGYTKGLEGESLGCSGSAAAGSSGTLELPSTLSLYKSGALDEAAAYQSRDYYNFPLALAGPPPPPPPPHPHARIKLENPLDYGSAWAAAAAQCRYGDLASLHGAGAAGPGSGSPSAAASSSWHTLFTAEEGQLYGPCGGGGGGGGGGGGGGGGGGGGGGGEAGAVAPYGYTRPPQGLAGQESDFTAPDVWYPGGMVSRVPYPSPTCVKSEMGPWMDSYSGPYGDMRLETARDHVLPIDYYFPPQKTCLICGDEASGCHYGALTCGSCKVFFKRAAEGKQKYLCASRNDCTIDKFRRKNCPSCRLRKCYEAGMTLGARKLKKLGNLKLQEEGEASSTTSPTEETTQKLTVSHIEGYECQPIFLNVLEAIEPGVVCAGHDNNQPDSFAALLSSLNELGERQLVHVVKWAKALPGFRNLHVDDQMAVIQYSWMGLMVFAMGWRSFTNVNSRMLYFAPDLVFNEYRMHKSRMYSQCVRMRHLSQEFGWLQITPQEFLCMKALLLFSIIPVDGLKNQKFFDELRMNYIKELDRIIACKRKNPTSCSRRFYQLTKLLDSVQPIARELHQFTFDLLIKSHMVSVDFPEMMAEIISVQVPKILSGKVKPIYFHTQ
UniProt Q14994, whole entry: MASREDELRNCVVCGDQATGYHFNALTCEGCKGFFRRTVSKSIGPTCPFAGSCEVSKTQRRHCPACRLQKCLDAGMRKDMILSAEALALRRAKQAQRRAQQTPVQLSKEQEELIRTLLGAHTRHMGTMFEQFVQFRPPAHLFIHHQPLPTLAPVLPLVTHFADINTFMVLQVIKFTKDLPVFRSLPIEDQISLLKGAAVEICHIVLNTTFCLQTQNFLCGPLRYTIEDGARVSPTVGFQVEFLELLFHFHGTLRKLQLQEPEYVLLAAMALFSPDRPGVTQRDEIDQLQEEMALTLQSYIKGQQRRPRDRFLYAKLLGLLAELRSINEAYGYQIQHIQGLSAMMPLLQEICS
UniProt Q92731, whole entry: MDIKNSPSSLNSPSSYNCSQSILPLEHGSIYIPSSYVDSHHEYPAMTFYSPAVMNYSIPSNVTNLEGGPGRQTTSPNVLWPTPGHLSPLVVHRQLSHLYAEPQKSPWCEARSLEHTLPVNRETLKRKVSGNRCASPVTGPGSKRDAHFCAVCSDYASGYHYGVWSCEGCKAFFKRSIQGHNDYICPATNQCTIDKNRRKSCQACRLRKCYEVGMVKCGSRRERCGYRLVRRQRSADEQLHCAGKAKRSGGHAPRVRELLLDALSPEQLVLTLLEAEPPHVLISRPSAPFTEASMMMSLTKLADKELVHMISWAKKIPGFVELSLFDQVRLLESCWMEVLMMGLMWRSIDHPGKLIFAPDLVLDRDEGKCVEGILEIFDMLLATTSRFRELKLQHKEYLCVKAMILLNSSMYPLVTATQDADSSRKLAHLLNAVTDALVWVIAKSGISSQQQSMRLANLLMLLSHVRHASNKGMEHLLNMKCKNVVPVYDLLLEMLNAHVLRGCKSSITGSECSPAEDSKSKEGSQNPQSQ
UniProt P16473, whole entry: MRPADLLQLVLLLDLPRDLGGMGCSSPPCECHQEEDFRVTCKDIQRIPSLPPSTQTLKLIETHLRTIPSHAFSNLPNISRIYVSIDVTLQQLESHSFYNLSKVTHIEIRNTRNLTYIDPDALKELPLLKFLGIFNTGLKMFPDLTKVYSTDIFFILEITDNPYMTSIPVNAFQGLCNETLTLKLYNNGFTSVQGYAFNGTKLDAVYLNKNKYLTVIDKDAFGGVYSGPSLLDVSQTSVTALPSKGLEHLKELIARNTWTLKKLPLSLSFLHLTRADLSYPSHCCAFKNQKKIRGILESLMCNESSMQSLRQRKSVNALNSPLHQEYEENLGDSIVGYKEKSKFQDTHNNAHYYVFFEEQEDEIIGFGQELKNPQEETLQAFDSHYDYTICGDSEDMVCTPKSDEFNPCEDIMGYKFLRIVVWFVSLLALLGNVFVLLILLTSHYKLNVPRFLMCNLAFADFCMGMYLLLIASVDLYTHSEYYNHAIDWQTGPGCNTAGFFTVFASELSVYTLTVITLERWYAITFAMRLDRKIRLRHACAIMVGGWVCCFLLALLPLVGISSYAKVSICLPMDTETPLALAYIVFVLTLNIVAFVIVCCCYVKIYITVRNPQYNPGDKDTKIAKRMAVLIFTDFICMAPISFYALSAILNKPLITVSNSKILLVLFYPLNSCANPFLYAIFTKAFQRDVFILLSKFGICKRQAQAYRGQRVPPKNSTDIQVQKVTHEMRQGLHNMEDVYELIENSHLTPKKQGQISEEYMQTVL

[2] = target: Androgen receptor (Homo sapiens) (UniProt P10275); assay: qHTS assay to identify small molecule antagonists of the androgen receptor (AR) signaling pathway using the MDA cell line (AID 743042; also: nearly all actives have a fitted effect of over 55% in size); settings: MDA-kb2 AR-luc, MMTV luciferase, R1881 antagonist, 16 h
[3] = qHTS assay to identify aromatase inhibitors - cell viability counter screen (AID 743084); settings: MCF-7 aro ERE viability, CellTiter-Fluor, 24 h; series mostly up to 70.3 µM;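 also: cells stimulated with testosterone during compound exposure; nearly all actives have a fitted effect of over 55% in size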
[4] = qHTS assay for small molecule agonists of the antioxidant response element (ARE) signaling pathway - cell viability counter screen (AID 743203; calls by dose curve; also: nearly all actives have a fitted effect of over 55% in size); settings: ARE-bla HepG2 viability, CellTiter-Glo luminescence, 16 h
Procedure, shortened: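 ARE-bla HepG2 cells were plated, rested 5 h at 37C/5% CO2, then exposed to compounds in DMSO for 16 h. Viability was read as CellTiter-Glo luminescence after 30 min at room temperature, in the same wells as the ARE screen.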

[5] = qHTS assay to identify small molecule agonists of the endoplasmic reticulum stress response signaling pathway - cell viability counter screen (AID 1159517; calls by dose curve; also: nearly all actives have a fitted effect of over 50% in size); settings: ESRE-bla HeLa viability, CellTiter-Glo luminescence, 5 h; series mostly up to 61 µM
Procedure, shortened: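 CellTiter-Glo was added to wells already read for beta-lactamase FRET, and luminescence was recorded 30 min later. Cells: ESRE-bla HeLa, 1,500 per well, compound exposure 5 hr at 37 C.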

[6] = qHTS assay to identify small molecule antagonists of the retinoic acid receptor (RAR) signaling pathway (AID 1159552; also: nearly all actives have a fitted effect of over 50% in size); settings: C3RL4 RARE luciferase reporter, retinol-stimulated, 6 h
Procedure, shortened: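 C3RL4 RARE-luc cells, overnight plating; retinol 1 uM final added right after compound; 6 hr 37 C; luciferase read at 30 min RT.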

[7] = qHTS assay to identify small molecule agonists of the constitutive androstane receptor (CAR) signaling pathway - cell viability counter screen (AID 1224836); settings: HepG2-CYP2B6-hCAR viability, CellTiter-Fluor, 23 h, PK11195 added to every well; series mostly up to 92.4 µM; also: nearly all actives have a fitted effect of over 45% in size
Procedure, shortened: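 Using CellTiter-Fluor, viability of HepG2 cells harbouring hCAR and CYP2B6-2.2kb was measured following 23 h incubation with a 15-concentration compound series plus PK11195 (0.75 uM final).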

[8] = target: Nuclear receptor subfamily 1 group I member 3 (Homo sapiens) (UniProt Q14994); assay: qHTS assay to identify small molecule antagonists of the constitutive androstane receptor (CAR) signaling pathway (AID 1224838); settings: HepG2-CYP2B6-hCAR luciferase, CITCO-stimulated, 24 h;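 also: HepG2 cells stably expressing hCAR with CYP2B6 luciferase reporter stimulated by CITCO; nearly all actives have a fitted effect of over 40% in size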
[9] = qHTS assay to identify small molecule antagonists of the estrogen related receptor signaling pathway with the pleiotropic PPARgamma coactivator (PGC) from Tox21 10K library - cell viability counter screen (AID 1224840; active = well fitted cell-killing curve with a large enough effect in the repeat runs, not every such curve was filed as active; also: nearly all actives have a fitted effect of over 40% in size); settings: PGC/ERR reporter cells viability, CellTiter-Fluor, 17.5 h; series mostly up to 92.4 µM
Procedure, shortened: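 PGC/ERR cells (2,000/well) plated 6 h, then compound-treated for 17.5 h at 37 C. Viability measured by CellTiter-Fluor fluorescence after 30 min at 37 C, multiplexed with the pathway assay.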

[10] = qHTS assay to identify small molecule antagonists of the estrogen related receptor signaling pathway with the pleiotropic PPARgamma coactivator (PGC) from Tox21 10K library (AID 1224841; call rule not given here; also: actives are mostly falling curves and most rising ones were filed inactive; nearly all actives have a fitted effect of over 50% in size); settings: PGC/ERR reporter cell line, ONE-Glo luciferase, 18 h
[11] = qHTS RealTime-Glo MT Cell Viability Assay in HEK293 cells - 32 hour (AID 1224868); settings: RealTime-Glo luminescence; series mostly up to 76.8 µM; also: nearly all actives have a fitted effect of over 50% in size
Procedure, shortened: (§1)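 HEK293 cells seeded with NanoLuc/prosubstrate reagent, rested 5 h at 37 C, then dosed and kept at 37 C up to 40 h. Nonlytic real-time luminescence from viable cells read at 0, 8, 16, 24, 32 and 40 h.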

[12] = qHTS RealTime-Glo MT Cell Viability Assay in HepG2 cells - 8 hour (AID 1224873); settings: RealTime-Glo luminescence; series mostly up to 76.8 µM; also: nearly all actives have a fitted effect of over 55% in size
Procedure, shortened: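 HepG2 cells mixed with RealTime-Glo MT reagents (NanoLuc plus cell-permeant prosubstrate) were seeded at 600 cells/well, incubated 5 h at 37 C/5% CO2, then pinned with compounds in DMSO; nonlytic luminescence tracked viability during 40 h treatment.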

[13] = qHTS RealTime-Glo MT Cell Viability Assay in HEK293 cells - 40 hour (AID 1224874); settings: RealTime-Glo luminescence; also: nearly all actives have a fitted effect of over 50% in size
Procedure, shortened: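 600 cells/well were plated with the nonlytic NanoLuc/prosubstrate reagent, pre-incubated 5 h, then given 23 nL of compound in DMSO. Incubation at 37 C for 40 h, with luminescence from viable-cell-reduced substrate read repeatedly from 0 h.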

[14] = A CellTox Green Cytotoxicity Assay to monitor cytotoxicity in HepG2 cells - 24 hour (AID 1224878); settings: CellTox Green fluorescence; also: nearly all actives have a fitted effect of over 45% in size
Procedure, shortened: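 HepG2 cells, 600/well, preincubated 5 h with CellTox Green dye, then exposed to Tox21 compounds in DMSO at 37 C for up to 40 h. Dead-cell DNA fluorescence read at the indicated time point.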

[15] = qHTS RealTime-Glo MT Cell Viability Assay in HEK293 cells - 24 hour (AID 1224886); settings: RealTime-Glo luminescence; also: nearly all actives have a fitted effect of over 50% in size
Procedure, shortened: as §1

[16] = qHTS assay to identify small molecule antagonists of the androgen receptor (AR) signaling pathway using the MDA cell line in the presence of 0.5 nM R1881 - cell viability counter screen (AID 1259242); settings: MDA-kb2 viability, CellTiter-Fluor protease fluorescence, 16 h; series mostly up to 92.4 µM; also: nearly all actives have a fitted effect of over 45% in size
Procedure, shortened: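 MDA-kb2 cells (MMTV-luciferase, AR/GR responsive) were treated with compounds plus 0.5 nM R1881 (final) for 16 hr at 37C, 0% CO2. Viability was then read in the same wells as live-cell protease fluorescence (CellTiter-Fluor, 30 min).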

[17] = qHTS assay to identify small molecule agonists of the sonic hedgehog signaling (Shh) pathway - cell viability counter screen (AID 1259366); settings: NIH/3T3 Gli1-Luc viability, CellTiter-Fluor, 24 h; also: nearly all actives have a fitted effect of over 50% in size
Procedure, shortened: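 Same-well cytotoxicity read. Gli1-Luc reporter 3T3 cells; compounds 24hr, 37C/5% CO2; CellTiter-Fluor fluorescence.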

[18] = qHTS assay to identify small molecule antagonists of the sonic hedgehog signaling (Shh) pathway - cell viability counter screen (AID 1259367); settings: NIH/3T3 Gli1-Luc viability, CellTiter-Fluor, 24 h; also: nearly all actives have a fitted effect of over 55% in size
Procedure, shortened: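 After a 4 hr settling period, 3T3 Gli1-Luc cells were treated with DMSO-dissolved chemicals and conditioned medium, kept 24 hr at 37C in 5% CO2, and assayed for viability by CellTiter-Fluor fluorescence following 1 hr reagent incubation.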

[19] = target: Estrogen receptor beta (Homo sapiens) (UniProt Q92731); assay: qHTS assay to identify small molecule antagonists of the estrogen receptor beta (ER-beta) signaling pathway (AID 1259378; active = well fitted inhibition curve with a large enough effect in the signal ratio in the repeat runs, not every such curve was filed as active; the % refers to the signal ratio); settings: ER-beta-UAS-bla HEK293T, beta-lactamase FRET ratio, 16 h
Procedure, shortened: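 ER-beta-UAS-bla HEK293T (GripTite) cells in 2% charcoal-stripped FBS medium were preincubated 6 hr at 37C, dosed with compound, then stimulated with 1 nM E2 (final) for 16 hr; beta-lactamase reporter read by B/G FRET fluorescence after 2 hr substrate loading.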

[20] = qHTS assay to identify small molecule agonists of the androgen receptor (AR) signaling pathway in the presence of an antagonist - cell viability counter screen (AID 1259379); settings: MDA-kb2 viability, CellTiter-Fluor, 16 h; also: nearly all actives have a fitted effect of over 25% in size
Procedure, shortened: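 MDA-kb2 cells (MMTV-luciferase, AR/GR), 3,000/well, 5 h attachment, then 3.0 µM nilutamide (final) and compounds at 15 concentrations. Viability by CellTiter-Fluor fluorescence after 16 h at 37 °C, 0% CO2, in the reporter wells.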

[21] = qHTS assay to identify small molecule agonists of the estrogen receptor beta (ER-beta) signaling pathway - cell viability counter screen (AID 1259380); settings: ER-beta-bla HEK293T viability, CellTiter-Glo luminescence, 16 h; also: nearly all actives have a fitted effect of over 30% in size
Procedure, shortened: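 ER-beta-UAS-bla HEK293T cells in medium with 2% charcoal-stripped FBS, pre-incubated 6 hr, then treated 16 hr at 37C. Cytotoxicity read in the same wells by CellTiter-Glo luminescence after 30 min at room temperature.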

[22] = qHTS assay to identify small molecule antagonists of the estrogen receptor beta (ER-beta) signaling pathway - cell viability counter screen (AID 1259382); settings: ER-beta-UAS-bla HEK293T viability, CellTiter-Glo luminescence, 16 h; also: nearly all actives have a fitted effect of over 55% in size
Procedure, shortened: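 ER-beta-UAS-bla HEK293T cells in 2% charcoal-stripped FBS medium, treated with compound plus 1 nM 17-beta-estradiol for 16 h at 37C. Viability read by CellTiter-Glo luminescence after 30 min at room temperature in the same wells.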

[23] = target: Thyrotropin receptor (Homo sapiens) (UniProt P16473); assay: qHTS assay to identify small molecule antagonists of the thyroid stimulating hormone receptor (TSHR) signaling pathway (AID 1259385; calls by dose curve; also: nearly all actives have a fitted effect of over 20% in size); settings: TSHR-HEK293 cAMP HTRF, TSH-stimulated antagonist mode
[24] = qHTS assay to identify small molecule agonists of the TGF-beta/Smad signaling pathway - cell viability counter screen (AID 1346829); settings: SBE-bla HEK293T viability, CellTiter-Glo luminescence, 5 h; also: nearly all actives have a fitted effect of over 45% in size
Procedure, shortened: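 SBE-bla HEK 293T cells plated overnight, compound exposure 5 hr at 37 C. Viability read in the same wells by CellTiter-Glo luminescence after 30 min at room temperature, following the beta-lactamase read.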

[25] = Caspase-3/7 induction in HepG2 cells by small molecules, qHTS assay (AID 1346978); settings: HepG2 caspase-3/7 activation, Caspase-Glo luminescence, 17 h; also: nearly all actives have a fitted effect of over 15% in size
Procedure, shortened: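 Wild-type HepG2 cells (2,000/well) were settled 5 h at 37 C, 5% CO2, then exposed to compounds in DMSO for 17 h. Caspase-3/7 activity was read by luminescence 30 min after adding Caspase-Glo 3/7 reagent at room temperature.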

Measured: Potency
Potency is read from the fitted curve at half-maximal effect.

O=C1C2CC=CCC2C(=O)N1SC(Cl)(Cl)C(Cl)Cl (stereo not given)
active: [1] 54.9 µM and 61.1 µM | [2] 2.75 µM and 3.06 µM | [3] 2.75 µM and 3.06 µM | [4] 3.06 µM | [5] 61.6 µM | [6] 15.5 µM and 3.86 µM | [7] 54.9 µM and 19.3 µM | [8] 19.5 µM and 8.63 µM | [9] 17.2 µM | [10] 24.5 µM and 8.63 µM | [11] 5.53 µM and 3.09 µM | [12] 12.3 µM | [13] 4.93 µM and 2.75 µM | [14] 19.6 µM and 6.16 µM | [15] 6.97 µM and 3.47 µM | [16] 27.3 µM | [17] 6.16 µM and 3.86 µM | [18] 4.89 µM and 5.45 µM | [19] 12.3 µM | [20] 61.6 µM and 27.3 µM | [21] 21.8 µM and 27.3 µM | [22] 17.2 µM | [23] 38.6 µM | [24] 24.5 µM | [25] 13.8 µM and 5.45 µM
